SMILES strings stand for the structures. The list shows a part of the results, in another mix than the full data. Active and inactive are the calls of the source.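 The calls were made as follows: active = activation above the mean of controls blocked by dofetilide plus 5 SD; inactive = the rest.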

By UniProt entry, the sequences of proteins in these tests, tags left out.
UniProt Q12809, whole entry: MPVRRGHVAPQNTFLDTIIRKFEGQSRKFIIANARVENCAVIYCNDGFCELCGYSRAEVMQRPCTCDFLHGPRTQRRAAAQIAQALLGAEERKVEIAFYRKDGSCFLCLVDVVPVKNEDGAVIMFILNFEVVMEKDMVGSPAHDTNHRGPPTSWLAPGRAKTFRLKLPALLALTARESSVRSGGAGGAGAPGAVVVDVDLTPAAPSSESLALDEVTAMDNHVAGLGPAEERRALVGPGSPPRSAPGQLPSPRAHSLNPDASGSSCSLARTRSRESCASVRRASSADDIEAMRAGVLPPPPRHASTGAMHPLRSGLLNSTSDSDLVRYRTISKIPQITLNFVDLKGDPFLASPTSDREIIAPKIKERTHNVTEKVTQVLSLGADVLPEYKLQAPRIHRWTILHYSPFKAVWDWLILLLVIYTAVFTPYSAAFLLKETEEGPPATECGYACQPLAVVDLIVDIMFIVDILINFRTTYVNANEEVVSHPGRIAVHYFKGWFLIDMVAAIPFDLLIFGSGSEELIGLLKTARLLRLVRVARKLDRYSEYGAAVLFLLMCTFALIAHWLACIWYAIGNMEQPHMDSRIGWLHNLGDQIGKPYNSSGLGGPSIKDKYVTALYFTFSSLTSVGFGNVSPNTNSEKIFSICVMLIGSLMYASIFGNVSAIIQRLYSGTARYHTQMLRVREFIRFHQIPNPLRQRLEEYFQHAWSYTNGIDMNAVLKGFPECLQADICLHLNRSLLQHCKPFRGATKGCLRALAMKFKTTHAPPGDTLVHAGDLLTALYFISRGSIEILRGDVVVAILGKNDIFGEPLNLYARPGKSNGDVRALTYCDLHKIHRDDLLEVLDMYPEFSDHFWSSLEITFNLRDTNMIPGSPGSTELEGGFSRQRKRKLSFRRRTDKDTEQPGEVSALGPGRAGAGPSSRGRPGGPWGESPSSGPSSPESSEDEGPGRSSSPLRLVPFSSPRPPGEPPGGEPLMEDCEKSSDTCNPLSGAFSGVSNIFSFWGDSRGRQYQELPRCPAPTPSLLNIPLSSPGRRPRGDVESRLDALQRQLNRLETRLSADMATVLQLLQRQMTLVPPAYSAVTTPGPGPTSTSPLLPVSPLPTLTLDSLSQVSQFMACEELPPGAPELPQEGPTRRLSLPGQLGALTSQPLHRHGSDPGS

Drawing on PubChem BioAssay AID1511 (Johns Hopkins Ion Channel Center, 2009), this text covers activation (rescue from dofetilide block), less the hit threshold for one compound.

The target of the experiment is Voltage-gated inwardly rectifying potassium channel KCNH2 (Homo sapiens) (UniProt Q12809). As to the kind of experiment: PubChem AID 1511.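 Also: thallium influx through hERG after potassium depolarization seen as dye fluorescence rise.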 The following applies: CHO-hERG, FluxOR thallium flux, dofetilide IC70 present; at 10 µM; stronger effect = higher value. For orientation: The hERG channel carries a current that helps repolarise heart muscle cells.
Turning to `COP1(=S)c2c(C)nn(CCC#N)c2N=C(c2ccc(F)cc2)N1C` (stereo unspecified), the activation (rescue from dofetilide block), less the hit threshold is inactive: -2.4%.
